From PubChem BioAssay AID1429 (The Scripps Research Institute Molecular Screening Center, 2008)
The list shows a part of the results, in another mix than the full data. The source made the active and inactive calls.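 How the source made its calls: active means inhibition above the hit threshold that was computed for the earlier primary screen (cut at about 30% in these data); inactive means the rest.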

Amino acid sequences for entries named in this document (tags omitted). A change or cut given only in a name is not applied to a line headed by its entry.
UniProt Q99500: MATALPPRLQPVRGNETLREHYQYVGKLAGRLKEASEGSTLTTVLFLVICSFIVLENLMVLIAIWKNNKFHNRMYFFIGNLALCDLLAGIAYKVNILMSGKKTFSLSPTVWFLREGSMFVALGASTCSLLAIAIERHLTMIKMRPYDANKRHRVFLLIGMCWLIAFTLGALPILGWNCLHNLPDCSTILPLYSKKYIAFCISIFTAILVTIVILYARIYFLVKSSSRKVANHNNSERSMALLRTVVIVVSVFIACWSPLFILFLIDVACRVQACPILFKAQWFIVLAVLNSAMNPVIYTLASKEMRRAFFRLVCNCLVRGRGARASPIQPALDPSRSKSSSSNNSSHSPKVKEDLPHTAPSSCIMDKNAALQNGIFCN

Biological target: Sphingosine 1-phosphate receptor 3 (Homo sapiens) (UniProt Q99500)
Experiment: S1P3 receptor antagonists, retest, confirmation, cell-based (AID 1429);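 further: 0% = S1P-stimulated wells and 100% = unstimulated DMSO-only wells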
Details: CHO S1P3 NFAT-BLA reporter, FRET, antagonist mode; at 4.98 µM; hits give high values

In the case of CC(=O)NC(SC(=S)N(CC(C)C)CC(C)C)C(Cl)(Cl)Cl (stereo unspecified), the inhibition is reported as inactive: -12.7%.
